Apparent affinities of Ab-91 variants for a coronavirus HR2 peptide

Source: Engelhart et al. 2022 (doi:10.1038/s41597-022-01779-4), MIT Lincoln Laboratory and A-Alpha Bio; data file from the FLAb repository.

All variants were tested on one target, the spike HR2 peptide PDVDLGDISGINAS (SARS-CoV-2).

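The starting antibody came from a phage panning campaign against this peptide. Library AAYL51 holds single substitutions and randomly drawn double and triple substitutions in the CDRs. Affinity was read by AlphaSeq, a pooled yeast mating assay with surface-displayed partners. Binding brings cells together so that they mate, and sequencing counts the barcode pairs among the diploids. Scores were corrected for input abundance and mapped to Kd with protein pairs of known affinity run in the same pool. Mating was done three times.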

The variants keep the light chain, the linker and the frameworks of Ab-91 (scFv order VL, a (GGGGS)3 linker, VH).
VL: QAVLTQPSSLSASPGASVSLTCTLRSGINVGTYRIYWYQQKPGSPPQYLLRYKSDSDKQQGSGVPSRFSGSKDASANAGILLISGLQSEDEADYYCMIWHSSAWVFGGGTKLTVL
VH: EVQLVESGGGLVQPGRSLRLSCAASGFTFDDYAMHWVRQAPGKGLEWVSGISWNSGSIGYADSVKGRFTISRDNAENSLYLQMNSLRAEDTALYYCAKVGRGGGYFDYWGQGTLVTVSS

Each variant is given by its three heavy chain CDRs, as the data file delimits them; those of the parent are GFTFDDYAMH, GISWNSGSIGYADSVK, VGRGGGYFDY.
All variants listed here change G102 of the VH, counted from its first residue.
Each Kd is an estimate from the mating assay, the geometric mean of the replicates in which the pair was seen; lower is stronger.
"nd" marks a missing value. The strain was present, yet no cells mated with the target were sequenced in any replicate, which points to weak or no binding.
Nonspecific signal, from three strains lacking the peptide, appeared in 21% of pairings of library AAYL51, centred on 34 µM (5% of these signals below 1.8 µM); values are not corrected for it.

Variant GFTFDDYAMH | GISWNSGSIGYDDSVK | VTRQGGYFDY showed nd (0 of 3 replicates). Variant GFTFDDYAMH | GKSWNSGSIGYADSVK | VGRVGGYFDM showed nd (0 of 3 replicates). With GFTFDDYAMP | GISWNSGSIGYAPSVK | VGRWGGYFDY the result was nd (0 of 3 replicates). For GFTFDDYAMH | GISWNSGSIGYADSVK | VGRHGGVFDR, the assay gave 22 nM (3 of 3 replicates). For GFTFDDYAMH | GISWNSGSIGYADSVK | VGRIGGYFDY, the assay gave 21 µM (1 of 3 replicates). Variant GFTFDDYAMH | GISWFSGSIGYADSVK | VGRWGGYFDK gave nd (0 of 3 replicates). Variant GFTFDDYAQH | GISWNSGSIGYADSVK | VGDQGGYFDY showed 270 µM (3 of 3 replicates).

For GFTFDDYAMH | GISWNSGSIGYADSVW | VGRCGGYFDY, the assay gave nd (0 of 3 replicates). Variant GFTFDDYAMH | CISRNSGSIGYADSVK | VGRTGGYFDY showed nd (0 of 3 replicates). For GFTFDDGAMH | GISWNSGSIGYADSVK | VGREGGYFIY, the assay gave 200 µM (3 of 3 replicates). With GFTFDDYAMH | GISWNSGNIGYADSVK | VGRDKGYFDY the result was 21 nM (3 of 3 replicates). Variant GWTFDIYAMH | GISWNSGSIGYADSVK | VGRPGGYFDY showed nd (0 of 3 replicates). With GFTFDDYAMH | GISWNSGSIKYADSVK | VGRVGEYFDY the result was nd (0 of 3 replicates). Variant GFTFDDYAMH | GISFNSGSIGYADSVK | VGRPGGWFDY showed 210 µM (1 of 3 replicates).

Variant GFTFDDYAMH | GICQNSGSIGYADSVK | VGRRGGYFDY showed 22 µM (2 of 3 replicates). Variant GFTFDDYAMH | GISWNFGSIGYADSVK | VGRYGGYFDY showed 4.6 µM (1 of 3 replicates). For GFTFDDYAMH | GISWNSGSIGYANSVK | VGRYGMYFDY, the assay gave nd (0 of 3 replicates). Variant GFTCDDYDMH | GISWNSGSIGYADSVK | VGRPGGYFDY gave nd (0 of 3 replicates). Variant GFTFDDYAMH | GISWNSGSIGYADSVK | VGRMGGYFGR showed 23 µM (2 of 3 replicates). Variant GFTFDDYAMH | GISWNSGSIGYADSVK | VGRSGGYFDY gave 11 nM (3 of 3 replicates). With GFTFDDYAMH | GISWNSGSIGYAKAVK | VGRDGGYFDY the result was 170 µM (3 of 3 replicates).

Variant GFTFDDYAMH | GISWNSGSIKYADSHK | VGREGGYFDY gave nd (0 of 3 replicates). Variant GFTSDRYAMH | GISWNSGSIGYADSVK | VGRCGGYFDY gave 3.0 µM (3 of 3 replicates). For GFTKGDYAMH | GISWNSGSIGYADSVK | VGRFGGYFDY, the assay gave nd (0 of 3 replicates). Variant GFTFDDYAMH | GISWNSGSIGYAYSVK | VGRPDGYFDY gave 8.5 µM (1 of 3 replicates). For GFTFDDYAMH | GISWNSGSIGYADSVK | VGRLGGSDDY, the assay gave nd (0 of 3 replicates). Variant GFTFDDYACH | GISWNSGSIGYADSVK | VGRLGGEFDY gave nd (0 of 3 replicates). Variant GFTFDDRAMH | GISWNSGSIGYAKSVK | VGRYGGYFDY gave nd (0 of 3 replicates).

Variant AFTFDDYAMH | GISWNSGSIGYADSVK | VGREGGYFDY gave 67 µM (1 of 3 replicates). Variant GFTFDDYAMH | GISWNSGSIGYADSVN | VGRCGGYFDY showed 150 µM (1 of 3 replicates).

Picked from the list: the 3 lowest averages where every replicate gave a value.

With GFTFDDYAMH | GISWNSGSIGYADSVK | VGRSGGYFDY the result was 11 nM (3 of 3 replicates).
With GFTFDDYAMH | GISWNSGNIGYADSVK | VGRDKGYFDY the result was 21 nM (3 of 3 replicates).
With GFTFDDYAMH | GISWNSGSIGYADSVK | VGRHGGVFDR the result was 22 nM (3 of 3 replicates).